{"sequences": {"note": "The chains behind the UniProt entries cited, without tags or fusion partners. Where a name states a change or a piece, a line headed by the entry shows the natural chain unless it says otherwise.", "UniProt P42336, whole entry, looked up": "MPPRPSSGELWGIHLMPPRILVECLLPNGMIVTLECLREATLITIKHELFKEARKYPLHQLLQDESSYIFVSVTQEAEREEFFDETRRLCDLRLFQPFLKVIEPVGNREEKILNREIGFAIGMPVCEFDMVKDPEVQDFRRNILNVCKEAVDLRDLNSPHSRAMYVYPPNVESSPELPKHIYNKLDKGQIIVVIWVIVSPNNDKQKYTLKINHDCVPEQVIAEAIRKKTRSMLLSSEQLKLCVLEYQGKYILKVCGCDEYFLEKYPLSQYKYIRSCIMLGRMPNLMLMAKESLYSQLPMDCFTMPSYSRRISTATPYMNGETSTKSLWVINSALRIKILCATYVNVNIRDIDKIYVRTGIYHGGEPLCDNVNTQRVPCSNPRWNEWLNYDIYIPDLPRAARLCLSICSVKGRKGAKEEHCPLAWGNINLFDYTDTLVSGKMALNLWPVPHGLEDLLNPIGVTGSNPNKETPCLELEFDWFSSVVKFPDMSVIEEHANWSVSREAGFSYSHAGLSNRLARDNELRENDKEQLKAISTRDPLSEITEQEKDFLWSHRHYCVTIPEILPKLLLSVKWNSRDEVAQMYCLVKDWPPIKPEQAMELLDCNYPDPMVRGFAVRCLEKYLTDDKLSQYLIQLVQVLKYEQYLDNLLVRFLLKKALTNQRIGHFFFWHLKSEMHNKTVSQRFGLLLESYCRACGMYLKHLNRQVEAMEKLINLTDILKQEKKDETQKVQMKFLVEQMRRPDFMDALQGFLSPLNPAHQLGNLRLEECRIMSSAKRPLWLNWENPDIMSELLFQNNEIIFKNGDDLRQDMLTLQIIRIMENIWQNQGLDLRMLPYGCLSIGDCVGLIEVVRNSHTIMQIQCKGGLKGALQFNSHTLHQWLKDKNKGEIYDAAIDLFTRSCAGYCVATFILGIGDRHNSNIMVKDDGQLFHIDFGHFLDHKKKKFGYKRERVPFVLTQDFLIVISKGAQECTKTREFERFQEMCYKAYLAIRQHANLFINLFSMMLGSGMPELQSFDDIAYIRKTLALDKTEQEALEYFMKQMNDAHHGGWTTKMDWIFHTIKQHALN", "UniProt O00329": "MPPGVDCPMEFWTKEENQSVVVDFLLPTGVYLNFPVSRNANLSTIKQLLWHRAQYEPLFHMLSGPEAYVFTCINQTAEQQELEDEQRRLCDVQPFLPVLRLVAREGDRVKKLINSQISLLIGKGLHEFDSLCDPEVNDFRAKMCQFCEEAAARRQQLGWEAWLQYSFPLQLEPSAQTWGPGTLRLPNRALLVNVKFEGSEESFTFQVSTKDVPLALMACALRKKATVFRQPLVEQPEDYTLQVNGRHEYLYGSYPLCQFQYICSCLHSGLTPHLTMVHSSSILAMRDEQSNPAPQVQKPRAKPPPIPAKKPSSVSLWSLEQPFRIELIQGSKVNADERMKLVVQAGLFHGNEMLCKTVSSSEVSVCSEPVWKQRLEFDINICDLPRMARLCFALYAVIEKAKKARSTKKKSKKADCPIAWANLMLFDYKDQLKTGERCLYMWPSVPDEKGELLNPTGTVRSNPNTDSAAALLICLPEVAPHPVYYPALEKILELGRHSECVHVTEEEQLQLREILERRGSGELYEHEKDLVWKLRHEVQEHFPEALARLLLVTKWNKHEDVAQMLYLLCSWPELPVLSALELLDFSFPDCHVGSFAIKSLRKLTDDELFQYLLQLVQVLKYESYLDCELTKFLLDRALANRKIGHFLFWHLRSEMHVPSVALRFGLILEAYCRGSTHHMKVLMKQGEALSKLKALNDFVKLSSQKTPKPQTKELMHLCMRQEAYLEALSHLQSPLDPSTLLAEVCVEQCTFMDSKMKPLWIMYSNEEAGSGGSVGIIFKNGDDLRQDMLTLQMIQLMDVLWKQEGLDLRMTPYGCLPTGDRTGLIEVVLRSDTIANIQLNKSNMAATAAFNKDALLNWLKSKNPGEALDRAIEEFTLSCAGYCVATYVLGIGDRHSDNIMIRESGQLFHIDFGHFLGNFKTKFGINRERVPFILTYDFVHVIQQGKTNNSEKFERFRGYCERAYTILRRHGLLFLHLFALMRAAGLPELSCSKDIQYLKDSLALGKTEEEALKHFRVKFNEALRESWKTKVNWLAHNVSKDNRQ"}, "source": "the Kinase Knowledgebase extract (Sharma et al. 2016)", "key": {"[1]": {"target": "PIK3CA (human) (UniProt P42336)", "assay": "Assessment of PIK3CA Kinase Activity"}, "[2]": {"target": "PIK3CD (Human) (UniProt O00329)", "assay": "Assessment of PIK3CD Kinase Activity"}}}
{"smiles": "COc1cccc2c1nc(C(F)F)n2-c1nc(-c2ccc(NS(=O)(=O)CCN(C)C)cc2)nc(N2CCOCC2)n1", "values": [{"measurement": "IC50", "setting": "[1]", "result": "< 0.1", "unit": "µM"}, {"measurement": "IC50", "setting": "[2]", "result": "0.1 to 1", "unit": "µM"}]}
